Assay results taken from patent US20150051262A1, “NMDA RECEPTOR MODULATORS AND USES THEREOF” (Northwestern University, priority 2011, published 2015).

What was measured:
floating behavior = test: Porsolt test procedure 1; format: in vivo, Sprague-Dawley rats; conditions: 1 hr before testing
[1] = tested on: Schaffer collateral-CA 1 synapses; conditions: concentration 1 uM
NMDAR = NMDAR (Rattus norvegicus, UniProt P35439); conditions: concentration 1 μM
NMDA receptor = NMDA receptor (Rattus norvegicus, UniProt P35439); test: [^3H] MK-801 binding assay; conditions: for Efficacy (% Increase in [^3H] MK-801 Binding): best-fit top value, 50 μM glutamate

Structure (SMILES)	% Reduction in Floating (floating behavior; 1 mg/kg, p.o.)	Efficacy (% Increase from Vehicle) in LTP [1]	Efficacy (% Change in NMDAR Current from Baseline) (NMDAR)	Efficacy (% Increase in [^3H] MK-801 Binding) (NMDA receptor)	% Reduction in Floating (floating behavior; 3 mg/kg, i.v.)	Emax (NMDA receptor; read-out: Efficacy (% Increase in [^3H] MK-801 Binding))
C[C@@H](O)[C@H](N)C(=O)N1CCC[C@H]1C(=O)N1CCC[C@]1(Cc1ccccc1)C(=O)N[C@H](C(N)=O)[C@@H](C)O [CM-4B, (S)-N-((2S,3R)-1-amino-3-hydroxy-1-oxobutan-2-yl)-1-((S)-1-((2S,3R)-2-amino-3-hydroxybutanoyl)-pyrrolidine-2-carbonyl)-2-benzylpyrrolidine-2-carboxamide]	63%	10%	10%	12%	–	–
C[C@@H](O)[C@H](NC(=O)[C@@H]1CCCN1C(=O)[C@@H]1CCCN1C(=O)[C@@H](N)CO)C(N)=O [CM-1, (S)-N-((2S,3R)-1-amino-3-hydroxy-1-oxobutan-2-yl)-1-((S)-1-((S)-2-amino-3-hydroxypropanoyl)pyrrolidine-2-carbonyl)pyrrolidine-2-carboxamide]	–	–	70%	79%	90%	–
C[C@@H](O)[C@H](N)C(=O)N1CCC[C@H]1C(=O)N1CCC[C@@]1(Cc1ccccc1)C(=O)N[C@H](C(N)=O)[C@@H](C)O [CM-4A, (R)-N-((2S,3R)-1-amino-3-hydroxy-1-oxobutan-2-yl)-1-((S)-1-((2S,3R)-2-amino-3-hydroxybutanoyl)pyrrolidine-2-carbonyl)-2-benzylpyrrolidine-2-carboxamide]	84%	30%	75%	–	–	12%
NC(=O)[C@H](CO)NC(=O)[C@@H]1CCCN1C(=O)[C@@H]1CCCN1C(=O)[C@@H](N)CO [CM-3, (S)-N-((S)-1-amino-3-hydroxy-1-oxopropan-2-yl)-1-((S)-1-((S)-2-amino-3-hydroxy-propanoyl)-pyrrolidine-2-carbonyl)-pyrrolidine-2-carboxamide]	–	–	–	23%	–	–
